Experimental data as given in US7253165B2, “Benzisoxazolyl-, pyridoisoxazolyl-and benzthienyl-phenoxy derivatives useful as D4 antagonists” (Aventis Pharmaceuticals Inc., priority 1999, dated 2007).

Chains of the proteins cited; added tags and fusions are not shown. A line that says so, or that is headed by a name, gives the form on record, which may keep a tag or linker.
UniProt P21917, with tags, fused parts or gaps DEL265-296: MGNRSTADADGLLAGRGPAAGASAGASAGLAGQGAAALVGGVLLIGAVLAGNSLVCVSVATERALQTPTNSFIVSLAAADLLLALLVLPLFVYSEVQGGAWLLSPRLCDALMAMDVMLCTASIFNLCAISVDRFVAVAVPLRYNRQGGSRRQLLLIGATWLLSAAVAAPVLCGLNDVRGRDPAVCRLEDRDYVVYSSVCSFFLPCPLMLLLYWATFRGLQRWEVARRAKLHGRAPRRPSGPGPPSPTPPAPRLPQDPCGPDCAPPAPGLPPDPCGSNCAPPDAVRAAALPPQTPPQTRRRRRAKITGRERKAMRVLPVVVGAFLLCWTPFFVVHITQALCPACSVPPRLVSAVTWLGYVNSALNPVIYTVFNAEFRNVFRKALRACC

Target: human D4 receptor (D4.2 sub-type) (Homo sapiens, UniProt P21917, DEL265-296)
Assay: D4 receptor binding assay, displacement of 3H-spiperone
Conditions: read-out: D4 RBA Ki, 3H-spiperone 0.25 nM, membranes of HEK cells transfected with human D4.2, * = HCl salt
Protocol: D4 receptor-binding affinities of the compounds were evaluated according to their ability to reduce binding of ^3H-spiperone as compared to the reference compound clozapine. The potency of the test compound to reduce ^3H-spiperone binding directly correlated to its binding affinity for the receptor.
[…] (human embryonic kidney) cells stably transfected with human D4 receptor (D4.2 sub-type) were grown in NUNC cell factories for 5 days (75% confluency) without a media change and removed with versene (approximately 19 mg of cells per cell factory tray). The cells were then centrifuged in a Sorval centrifuge for 10 min, 5000 rpm (GS3 rotor) and the pellets quickly frozen in liquid nitrogen and stored at −80° C. until used in binding assay. When used in the assay, cells were thawed on ice for 20 min and then 10 mL of incubation buffer (50 mM Tris, 1 mM EDTA, 4 mM MgCl2, 5 mM KCl, 1.5 mM CaCl2, 120 mM NaCl, pH 7.4) was added. The cells were then vortexed to resuspend pellet and homogenized with a Kinematica, CH-6010 Kriens-LU, homogenizer for 15 seconds at setting 7. Concentration of receptor protein was determined using the Pierce BCA assay.
The incubation was started by the addition of 100 μl (50 μg protein) membrane homogenate to a solution of 300 μl incubation buffer and 100 μl (0.25 nM final conc.) ^3H-spiperone (90 Ci/mmol, Amersham, diluted in borosilicate glass vial) in 96-well polypropylene plates (1 ML per well). […] The plates were sealed and counted in the Packard Top Count (3 minutes per well).
The incubation was started by the addition of 100 μl (50 μg protein) membrane homogenate to a solution of 200 μl incubation buffer, 100 μl ^3H-spiperone (90 Ci/mmol, Amersham, diluted in borosilicate glass vial to 0.25 nM final conc.) and 100 μl (30 μM final conc.) of fresh dopamine (Research Biochemicals Inc., light protected and dissolved in incubation buffer) in 96-well polypropylene plates (1 mL per well). […] The filters were washed and counted using the same procedure as in the total binding assay described above to give the non-specific binding value (NSB). […]

SMILES | Ki | Ki (tested form: HCl)
O[C@@H](COc1cccc(-c2noc3ncccc23)c1)CN1CCC(Oc2cccc(Cl)c2)CC1 [Example 102, (R)-1-[4-(3-chloro-phenoxy)-piperidin-1-yl]-3-(3-isoxazolo[5,4-b]pyridin-3-yl-phenoxy)-propan-2-ol] | 91 nM | 
O[C@H](CNCc1ccccc1)COc1ccc(-c2noc3cc(F)ccc23)cc1 [Example 75, (R)-1-benzylamino-3-[4-(6-fluoro-benzo[d]isoxazol-3-yl)-phenoxy]-propan-2-ol] |  | 7.7 nM
O[C@H](CNCc1c(F)cccc1F)COc1ccc(-c2noc3cc(F)ccc23)cc1 [Example 114, (R)-1-(2,6-difluoro-benzylamino)-3-[4-(6-fluoro-benzo[d]isoxazol-3-yl)-phenoxy]-propan-2-ol] | 6.8 nM | 

Read-outs that look alike come from different tables or passages of the source.
